Measurements as given in patent US5071877A, “Metal oximate/polyethylene glycols chemicals decontaminant system” (dated 1991).

How the values were obtained:
[1] = Dissolution of active ingredient salt in base cream / base medium; details: for Dissolution of salt in base 3: 1.25 molar in base cream 3; for Fraction of salt that appears to dissolve, bases 1 and 2: 1.25 molar in base creams 1 and 2, remainder finely dispersed
[2] = Decontamination (destruction) of CW agent GD, gas chromatographic analysis; details: tetraglyme
[3] = Decontamination (destruction) of CW agent HD, gas chromatographic analysis; details: tetraglyme
[4] = method I, salt:agent 1:1, salt 0.025 M
[5] = method I, salt:agent 2:1, salt 0.05 M
[6] = method II (in situ), salt:agent 1:1, salt 0.025 M
[7] = method II (in situ), salt:agent 2:1, salt 0.05 M

CC(=O)C(C)=NO
Dissolution of salt in base 3 [1]: appears to dissolve completely
Fraction of salt that appears to dissolve, bases 1 and 2 [1]: at least 75%

[K+].[O-]c1ccccc1
Fraction of salt that appears to dissolve, bases 1 and 2 [1]: at least 75%

COCCOCCO
% Decontamination at reaction time 1 min [2, 4]: 91%
% Decontamination at reaction time 3 min [2, 4]: 93%
% Decontamination at reaction time 1 min [2, 5]: 100%
% Decontamination at reaction time 1 min [2, 6]: 82%
% Decontamination at reaction time 3 min [2, 6]: 77%
% Decontamination at reaction time 5 min ([2]; method II (in situ), salt:agent 1:1, salt 0.025 M, 5 min): 80%
% Decontamination at reaction time 10 sec [3, 4]: 75%
% Decontamination at reaction time 1 min [3, 4]: 91%
% Decontamination at reaction time 3 min [3, 4]: 96%
% Decontamination at reaction time 10 sec [3, 5]: 99%
% Decontamination at reaction time 30 sec [3, 5]: 100%
% Decontamination at reaction time 1 min [3, 5]: 100%
% Decontamination at reaction time 10 sec [3, 6]: 85%
% Decontamination at reaction time 30 sec [3, 6]: 92%
% Decontamination at reaction time 1 min [3, 6]: 82%
% Decontamination at reaction time 3 min [3, 6]: 89%
% Decontamination at reaction time 5 min [3, 6]: 94%
% Decontamination at reaction time 10 sec [3, 7]: 87%
% Decontamination at reaction time 30 sec [3, 7]: 99%
% Decontamination at reaction time 1 min [3, 7]: 100%
% Decontamination at reaction time 3 min [3, 7]: 100%
% Decontamination at reaction time 5 min [3, 7]: 100%

CC(=NO)c1ccccc1
Dissolution of salt in base 3 [1]: appears to dissolve completely
Solubility in base 4 ([1]; 1.25 molar in base cream 4): appears to be soluble
Fraction of salt that appears to dissolve, bases 1 and 2 [1]: at least 75%

CC(C)=NO
Dissolution of salt in base 3 [1]: appears to dissolve completely
Fraction of salt that appears to dissolve, bases 1 and 2 [1]: at least 75%
